This is an account of results in article PMC4323178 (Journal of thrombosis and haemostasis : JTH, 2011).

The assay concerns the target DR0301 (Homo sapiens, UniProt P01903+P01911, A100K/A102G/A103R/A169T/F55Y/I96L/K41T/L162R/M171V/P40S/Q125H/Q178H/Q39Y/R42S/S66N/T106N/W38E/Y61H). Type of assay: binding. The settings on record: SEM.

Structures are written as SMILES.

As usually defined, the IC50 is the concentration needed to halve the response being measured.

As for `CC[C@H](C)[C@H](NC(=O)[C@H](CC(N)=O)NC(=O)[C@H](CCC(=O)O)NC(=O)[C@@H](NC(=O)[C@H](CC(C)C)NC(=O)[C@H](Cc1ccc(O)cc1)NC(=O)[C@H](Cc1c[nH]c2ccccc12)NC(=O)[C@H](CO)NC(=O)[C@H](CCCNC(=N)N)NC(=O)[C@H](CC(N)=O)NC(=O)[C@@H](N)CCC(=O)O)[C@@H](C)O)C(=O)N[C@@H](CCC(N)=O)C(=O)N[C@@H](CCCNC(=N)N)C(=O)N[C@@H](Cc1ccccc1)C(=O)N[C@@H](CC(C)C)C(=O)N1CCC[C@H]1C(=O)N[C@@H](CC(N)=O)C(=O)N1CCC[C@H]1C(=O)N[C@@H](C)C(=O)NCC(=O)O` [FVIII581–600], the half-inhibitory concentration (IC50) was found to be 44 ± 7 µM.
